Values of other authors as cited in US20010046957A1, “Method for treating hepatitis C” (priority 1999, published 2001).

Target: type 2 isoform of IMPDH (Homo sapiens, UniProt P12268)
Conditions: isoform expressed in activated T and B lymphocytes

Substance: Mycophenolic acid [MPA]
- inhibition of type 2 isoform of IMPDH: potent, selective, non-competitive inhibitor
